# Results as given in article PMC10062709, “Fluorescence based HTS-compatible ligand binding assays for dopamine D3 receptors in baculovirus preparations and live cells” (Frontiers in Molecular Biosciences, 2023).
# Protein sequences, listed by entry. Tags and fused reporters are not part of them.
# UniProt P35462, whole entry: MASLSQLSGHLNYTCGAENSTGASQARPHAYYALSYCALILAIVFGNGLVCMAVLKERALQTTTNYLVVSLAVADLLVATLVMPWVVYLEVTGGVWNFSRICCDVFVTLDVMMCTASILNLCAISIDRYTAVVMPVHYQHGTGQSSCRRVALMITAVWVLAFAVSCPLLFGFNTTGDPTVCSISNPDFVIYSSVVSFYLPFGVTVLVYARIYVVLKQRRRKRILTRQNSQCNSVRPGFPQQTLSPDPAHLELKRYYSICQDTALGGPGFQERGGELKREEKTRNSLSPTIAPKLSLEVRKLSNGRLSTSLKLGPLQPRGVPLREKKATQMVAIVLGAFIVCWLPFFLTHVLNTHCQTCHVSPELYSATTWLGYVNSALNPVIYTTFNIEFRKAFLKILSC
# Target: T1, human D3 receptor (Homo sapiens, UniProt P35462)
# T1 construct: host or cells: Sf9 cells; final budded baculovirus production in Mimic Sf9 insect cells
# Assay: Fluorescence anisotropy competition binding with CELT-419 and D3 receptor budded baculoviruses
# Conditions: FA competition with 0.5 nM CELT-419
structure (smiles),measurement,value
"Br.CCCN(CCC)C1CCc2ccc(O)cc2C1 (stereo not shown) [7-OH-DPAT, 7-hydroxy-DPAT hydrobromide]",Log(IC50) values change in time,increased in time
